# Reference: ChEMBL document CHEMBL1139197, “Synthesis, structural analysis, and SAR studies of triazine derivatives as potent, selective Tie-2 inhibitors” (Bioorg Med Chem Lett, 2007)
# Sequences of proteins named here, by UniProt entry; tags and fusion partners are left off. A change or cut given only in a name is not applied to a line headed by its entry.
# UniProt P08581: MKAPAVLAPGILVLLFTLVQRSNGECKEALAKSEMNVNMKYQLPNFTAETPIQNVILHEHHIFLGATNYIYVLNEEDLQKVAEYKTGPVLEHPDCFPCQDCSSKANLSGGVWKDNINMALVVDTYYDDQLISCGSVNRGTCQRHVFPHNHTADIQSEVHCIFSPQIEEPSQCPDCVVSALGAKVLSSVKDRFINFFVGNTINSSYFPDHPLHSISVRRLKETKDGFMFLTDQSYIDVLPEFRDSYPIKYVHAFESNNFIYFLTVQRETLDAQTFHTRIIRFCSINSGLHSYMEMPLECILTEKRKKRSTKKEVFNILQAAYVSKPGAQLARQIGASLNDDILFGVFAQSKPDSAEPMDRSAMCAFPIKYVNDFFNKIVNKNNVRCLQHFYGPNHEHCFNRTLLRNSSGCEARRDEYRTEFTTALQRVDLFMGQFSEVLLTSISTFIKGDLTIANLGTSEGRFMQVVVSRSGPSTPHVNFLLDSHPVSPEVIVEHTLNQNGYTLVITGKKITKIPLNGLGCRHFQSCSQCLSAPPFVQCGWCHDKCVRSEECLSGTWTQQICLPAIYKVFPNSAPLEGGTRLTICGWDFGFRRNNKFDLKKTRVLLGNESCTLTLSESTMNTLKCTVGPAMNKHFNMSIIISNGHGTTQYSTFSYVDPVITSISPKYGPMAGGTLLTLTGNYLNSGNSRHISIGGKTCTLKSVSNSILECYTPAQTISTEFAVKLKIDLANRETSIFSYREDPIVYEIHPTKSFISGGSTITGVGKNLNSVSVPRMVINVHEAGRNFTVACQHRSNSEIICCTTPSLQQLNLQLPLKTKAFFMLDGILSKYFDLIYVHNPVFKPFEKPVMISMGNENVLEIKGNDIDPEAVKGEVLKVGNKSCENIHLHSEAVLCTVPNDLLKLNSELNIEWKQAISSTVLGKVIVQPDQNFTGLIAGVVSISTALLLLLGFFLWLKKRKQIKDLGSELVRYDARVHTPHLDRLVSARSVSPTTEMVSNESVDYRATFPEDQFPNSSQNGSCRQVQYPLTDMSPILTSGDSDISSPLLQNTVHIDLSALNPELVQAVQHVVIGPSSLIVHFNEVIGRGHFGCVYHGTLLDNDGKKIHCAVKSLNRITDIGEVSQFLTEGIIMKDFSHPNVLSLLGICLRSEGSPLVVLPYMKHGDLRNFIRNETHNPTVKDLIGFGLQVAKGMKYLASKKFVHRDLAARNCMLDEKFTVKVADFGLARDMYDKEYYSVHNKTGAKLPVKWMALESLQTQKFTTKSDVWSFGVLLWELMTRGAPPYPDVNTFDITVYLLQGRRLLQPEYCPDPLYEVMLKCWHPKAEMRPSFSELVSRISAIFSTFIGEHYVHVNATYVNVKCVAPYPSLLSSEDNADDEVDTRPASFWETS
# What was measured:
# [1] = target: Hepatocyte growth factor receptor (Homo sapiens, UniProt P08581); assay: Inhibition of cMet by radioactive filtration assay
# [2] = target: T1, Tyrosine-protein kinase ZAP-70 (Homo sapiens, UniProt P43403); assay: Inhibition of Zap70 by radioactive filtration assay
# T1 sequence (P43403 whole entry): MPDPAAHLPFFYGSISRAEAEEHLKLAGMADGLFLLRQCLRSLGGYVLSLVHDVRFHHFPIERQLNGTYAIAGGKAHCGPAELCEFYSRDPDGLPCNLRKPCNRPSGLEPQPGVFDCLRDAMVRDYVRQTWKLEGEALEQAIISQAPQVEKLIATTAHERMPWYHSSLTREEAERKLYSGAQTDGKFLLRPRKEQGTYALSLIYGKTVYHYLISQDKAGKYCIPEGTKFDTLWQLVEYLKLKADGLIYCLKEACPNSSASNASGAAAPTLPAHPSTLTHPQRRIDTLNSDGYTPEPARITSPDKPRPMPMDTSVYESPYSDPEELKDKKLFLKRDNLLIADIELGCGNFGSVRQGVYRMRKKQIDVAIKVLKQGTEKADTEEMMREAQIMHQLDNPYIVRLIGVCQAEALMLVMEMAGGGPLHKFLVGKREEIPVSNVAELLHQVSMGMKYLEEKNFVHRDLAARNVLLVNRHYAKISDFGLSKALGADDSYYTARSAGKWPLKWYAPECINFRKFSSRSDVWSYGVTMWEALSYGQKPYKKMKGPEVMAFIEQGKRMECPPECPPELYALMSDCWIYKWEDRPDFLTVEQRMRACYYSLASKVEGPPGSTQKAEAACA
smiles,measurement,setting,value
CNc1ncnc(-c2cccnc2Oc2cc(NC(=O)c3cccc(OC(F)(F)C(F)F)c3)ccc2C)n1,IC50,[1],25 µM
same,IC50,[2],25 µM
